# AlphaSeq binding of Ab-95 light chain variants to a spike HR2 peptide

Reference: Engelhart et al. 2022, doi:10.1038/s41597-022-01779-4. File: FLAb, binding data.

Target: peptide PDVDLGDISGINAS, taken from heptad repeat 2 (HR2) of SARS-CoV-2 spike.

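The parent was found by panning a naive human phage display library on the peptide. The library (AAYL52) carries one to three amino acid substitutions per variant, with no insertions or deletions. In AlphaSeq, yeast of one mating type display the scFv and yeast of the other type display the target. Mating (16 h, 30 °C) was followed by selection of diploids and sequencing of their barcodes. The ratio of observed to expected reads was calibrated, replicate by replicate, on BCL2-family standards whose Kd was known from biolayer interferometry. Mating was done three times.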

Each scFv is VH, three GGGGS repeats, VL, as in the parent Ab-95, and differs from it in the CDRs of the light chain only.
VH: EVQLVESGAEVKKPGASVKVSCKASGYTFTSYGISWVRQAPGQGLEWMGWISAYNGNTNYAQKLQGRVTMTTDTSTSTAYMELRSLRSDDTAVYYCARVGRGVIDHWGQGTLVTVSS
VL: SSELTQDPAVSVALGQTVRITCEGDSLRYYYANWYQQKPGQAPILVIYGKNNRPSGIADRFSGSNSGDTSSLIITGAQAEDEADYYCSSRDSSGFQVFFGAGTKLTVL

Each variant is given by its three light chain CDRs, as the data file delimits them; those of the parent are EGDSLRYYYAN, GKNNRPS, SSRDSSGFQVF.
The read-out is the apparent dissociation constant on a log10 scale (nM): the lower, the stronger.
Replicates are averaged; those with no signal do not enter the mean.
"n.d." means that the variant was in the library but no mating with the target was seen in that replicate; the authors take this as a sign of poor binding, and no number exists.
For reference, the parent read 2.31 as the reference entry and 2.25 as a member of this library.

| CDR-L1 | CDR-L2 | CDR-L3 | replicates, log10 nM | mean, log10 nM | signal with controls |
|---|---|---|---|---|---|
| EGDSLDYYYEN | GKNNRPL | SSRDSSGFQVF | n.d. 4.53 4.28 | 4.40 | 2/9 (3.96) |
| EGDSLRYYYAN | GKNNRPS | SVRDSHGQQVF | 3.76 n.d. n.d. | 3.76 | 3/9 (3.08) |
| EGDSLRYYYAN | GKNVRPS | SCRDSSGFQVH | 2.26 2.05 1.45 | 1.92 | 2/9 (4.17) |
| NGDSLRYYYDN | GKNDRPS | SSRDSSGFQVF | 1.63 1.67 1.59 | 1.63 | 3/9 (4.88) |
| EHDSWRYYYAN | GKNNRPS | SSFDSSGFQVF | n.d. n.d. 3.76 | 3.76 | 2/9 (3.97) |
| EGDSLRYYYAN | GPNNRHS | SSRDSSGFKVF | 3.92 4.88 2.45 | 3.75 | 3/9 (3.62) |
| EGDSLRIYYNN | GKNNSPS | SSRDSSGFQVF | 3.78 3.53 4.73 | 4.02 | 6/9 (3.67) |
| EGDSDRYYYAN | GKNVRPS | SSRDGSGFQVF | n.d. n.d. n.d. | n.d. | 2/9 (4.41) |
| YGDSLRFYYAN | GKNNRPS | SSVDSSGFQVF | n.d. n.d. n.d. | n.d. | 2/9 (3.45) |
| EGDSLRYYYAN | HKNNRPS | TSRDSSAFQVF | 4.18 n.d. n.d. | 4.18 | 3/9 (3.47) |
| EGDSLCYYYWN | GKNNRPS | SSRCSSGFQVF | n.d. n.d. 4.35 | 4.35 | 3/9 (4.14) |
| EGDSLHYYFAN | GKNNRRS | SSRDSSGFQVF | 4.00 3.09 2.95 | 3.35 | 1/9 (5.13) |
| EGDYLRYYYAN | AKNNRPS | SARDSSGFQVF | 3.23 4.36 3.56 | 3.71 | 4/9 (3.61) |
| EGDSLRYYYAN | GKNCRPS | SSRDSSGFQVI | n.d. n.d. n.d. | n.d. | 0/9 |
| EGDSLRYAMAN | GKNNRPS | SNRDSSGFQVF | 2.13 1.98 2.06 | 2.06 | 3/9 (3.68) |
| ERDSLRYYYVS | GKNNRPS | SSRDSSGFQVF | 3.80 n.d. n.d. | 3.80 | 3/9 (3.78) |
| EGDSLWYYYAN | GKNNRPS | SSRDSSGFQVF | 2.27 2.75 4.03 | 3.01 | 1/9 (3.83) |
| EGDSLRCYYAD | GKNNRPS | SSRDMSGFQVF | 2.58 5.35 n.d. | 3.97 | 1/9 (3.55) |
| EGDSLRYIYAN | GKNNRPG | SSRDSSGFQVF | 2.68 2.82 2.55 | 2.69 | 4/9 (3.66) |
| AGDSLRYYHAN | GKNNRPS | GSRDSSGFQVF | 1.81 1.66 1.36 | 1.61 | 3/9 (4.22) |
| EMDSRRYYYAN | GKNNRPS | SSRDESGFQVF | 3.66 n.d. 2.79 | 3.22 | 4/9 (4.30) |
| EGDDLYYYYWN | GKNNRPS | SSRDSSGFQVF | 3.96 n.d. n.d. | 3.96 | 2/9 (3.76) |
| EGSSLRYYYAN | GKNNRPS | VSRDSPGFQVF | 3.54 4.22 n.d. | 3.88 | 4/9 (4.08) |
| EGDSLRYYYSN | GHNNRPS | SSRDSSGFQVV | 2.65 2.10 2.39 | 2.38 | 4/9 (4.85) |
| EGDSLRYYYAN | GGNNFPS | SSRDSIGFQVF | n.d. 5.49 4.16 | 4.83 | 2/9 (4.37) |
| EGDSLRYYYAN | GKNNRPV | NSRDESGFQVF | 3.09 2.83 2.34 | 2.75 | 3/9 (4.00) |
| EGDSLRYKYAN | SKNNRPS | SSRDSGGFQVF | 2.63 2.51 2.81 | 2.65 | 8/9 (3.87) |
| EGDSLRYYYAN | GKLNRPS | SSCDSSGFQVV | 3.86 n.d. n.d. | 3.86 | 2/9 (3.20) |
| EGDSLRYYVAN | GKLNRPS | SSRWSSGFQVF | 3.48 n.d. n.d. | 3.48 | 3/9 (3.38) |
| EGDILRAYYAN | GKNNRPS | QSRDSSGFQVF | 1.83 1.97 1.41 | 1.74 | 6/9 (4.53) |
| EGDSLRQYYAN | GMNNRPS | SSRDSSGFQVP | 2.53 2.79 2.76 | 2.70 | 5/9 (3.82) |
| EGDSLRYYVKN | GKNNRPC | SSRDSSGFQVF | n.d. n.d. 3.85 | 3.85 | 4/9 (3.49) |
| EGDSLRYYYAN | GKNNRPS | SSKHSSAFQVF | 4.98 4.61 n.d. | 4.79 | 3/9 (3.09) |
| ESDSLRYYYDN | GKNNRPS | SSRDSSGFQFF | 4.50 n.d. n.d. | 4.50 | 3/9 (3.91) |
| EGDSLREYYAN | EKNNRPS | SSRPSSGFQVF | 3.84 n.d. n.d. | 3.84 | 3/9 (2.83) |
| EGDSLRYYYRN | GKNNRPS | SSRDHSGFFVF | 4.27 3.29 3.88 | 3.81 | 5/9 (4.41) |
| EQDSLRVYYAN | GKNNRPS | SSRDSSGFQYF | n.d. 4.06 4.50 | 4.28 | 4/9 (4.14) |
| EKDSLRYYYAN | GKNNRPT | SSRDSSGFQVD | 2.45 1.97 1.66 | 2.02 | 1/9 (5.27) |
| EGDSLRYYLAN | GKNNRPS | VWRDSSGFQVF | 2.82 3.14 3.04 | 3.00 | 5/9 (4.05) |
| EGDSLRYYYLV | GKNNRPS | RSRDSSGFQVF | n.d. n.d. n.d. | n.d. | 1/9 (2.86) |
| EGDSLRYYYAN | GKNNAPW | SSRDSSDFQVF | 3.75 4.81 n.d. | 4.28 | 6/9 (4.13) |
| EGDSLRAYYEN | GKNNRPS | SSRDSEGFQVF | n.d. n.d. n.d. | n.d. | 2/9 (4.78) |
| EGDSLRYYYAN | GKCNRPS | ESHDSSGFQVF | 2.74 4.24 4.03 | 3.67 | 1/9 (2.99) |

5 of these entries, quoted again:

| CDR-L1 | CDR-L2 | CDR-L3 | replicates, log10 nM | mean, log10 nM | signal with controls |
|---|---|---|---|---|---|
| EGDSLRYYVAN | GKLNRPS | SSRWSSGFQVF | 3.48 n.d. n.d. | 3.48 | 3/9 (3.38) |
| EGDSLRYYYAN | GKNNRPV | NSRDESGFQVF | 3.09 2.83 2.34 | 2.75 | 3/9 (4.00) |
| EGDSLRYYYAN | HKNNRPS | TSRDSSAFQVF | 4.18 n.d. n.d. | 4.18 | 3/9 (3.47) |
| EGDSLRYYYAN | GGNNFPS | SSRDSIGFQVF | n.d. 5.49 4.16 | 4.83 | 2/9 (4.37) |
| EGDSLRYYYAN | GKNNAPW | SSRDSSDFQVF | 3.75 4.81 n.d. | 4.28 | 6/9 (4.13) |

Three control strains display no target. For library AAYL52, 28% of the pairings with them gave a signal, with a median of 3.91 and one signal in twenty below 2.90, so weak values seen in few replicates may be background. The control count says in how many pairings with the empty strains this scFv gave a signal, with their mean in brackets.